Measured values from patent US12570631B2, “Substituted N-(4-(pyrimidin and pyridin-4-yl)benzylcarboxamides and its use for treating disorders responsive to inhibition of Btk” (BIOGEN MA INC., priority 2019, dated 2026).

By UniProt entry, the sequences of proteins in these tests, tags left out. Where a name states a change or a piece, a line headed by the entry shows the natural chain unless it says otherwise.
UniProt Q06187: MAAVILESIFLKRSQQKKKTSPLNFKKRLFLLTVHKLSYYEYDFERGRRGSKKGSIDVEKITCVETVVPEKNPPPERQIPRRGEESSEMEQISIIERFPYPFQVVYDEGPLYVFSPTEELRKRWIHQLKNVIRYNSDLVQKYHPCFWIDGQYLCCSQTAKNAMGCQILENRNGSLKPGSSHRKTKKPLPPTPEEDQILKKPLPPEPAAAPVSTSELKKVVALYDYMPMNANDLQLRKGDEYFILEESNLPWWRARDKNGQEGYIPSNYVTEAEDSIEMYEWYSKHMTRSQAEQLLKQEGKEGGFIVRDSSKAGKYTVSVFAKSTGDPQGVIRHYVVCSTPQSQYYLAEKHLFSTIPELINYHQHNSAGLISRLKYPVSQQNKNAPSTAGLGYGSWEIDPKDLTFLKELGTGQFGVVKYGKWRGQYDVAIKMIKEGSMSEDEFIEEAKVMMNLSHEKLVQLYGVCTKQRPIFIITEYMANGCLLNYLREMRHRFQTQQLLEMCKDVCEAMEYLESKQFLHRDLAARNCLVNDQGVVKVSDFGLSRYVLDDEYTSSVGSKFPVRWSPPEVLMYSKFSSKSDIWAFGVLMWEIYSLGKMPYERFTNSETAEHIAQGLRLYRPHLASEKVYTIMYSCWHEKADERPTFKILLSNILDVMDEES

Each molecule was assayed against BTK (Homo sapiens (Human), UniProt Q06187) (assay: In vitro BTK kinase assay: Btk-PolyGAT-LS assay). Settings: ATP 10 μM, polyGAT 100 nM, BTK 0.25 nM, 30 minutes.
Assay type: biochemical

Question: How did the IC50 turn out when `Cc1cc(-c2ccncc2OC2CCN(C#N)C2)ccc1CNC(=O)c1cn(C(C)(C)C)nn1` (stereo not drawn) [Example 46, 1-(tert-butyl)-N-(4-(3-((1-cyanopyrrolidin-3-yl)oxy)pyridin-4-yl)-2-methylbenzyl)-1H-1,2,3-triazole-4-carboxamide] was run?
Answer: > 10 nM

Question: Which IC50 does the source give for `Cc1cc(-c2ccncc2OC2CCN(C#N)CC2)ccc1CNC(=O)c1cn(C(C)(C)C)nn1` [Example 47, 1-(tert-butyl)-N-(4-(3-((1-cyanopiperidin-4-yl)oxy)pyridin-4-yl)-2-methylbenzyl)-1H-1,2,3-triazole-4-carboxamide] here?
Answer: > 10 nM

Question: For `Cc1cc(-c2ccncc2OC2CN(C#N)C2)ccc1CNC(=O)c1cn(C(C)(C)C)nn1` [Example 45, 1-(tert-butyl)-N-(4-(3-((1-cyanoazetidin-3-yl)oxy)pyridin-4-yl)-2-methylbenzyl)-1H-1,2,3-triazole-4-carboxamide], which IC50 is on record?
Answer: > 10 nM
